2 compounds from publication PMC7812675 (ACS Medicinal Chemistry Letters, 2020) can be followed below.

In the assay the target is VHL/EloB/EloC complex (VBC) (Homo sapiens, UniProt P40337). Nature of the assay: Competitive MST assay, unlabeled peptides against VHL and FAM reporter peptide. The settings on record: derived from IC50.
Setting [1] is: FAM-11mer competition, 570 nM VBC/20 nM FAM-11mer reporter.
The mark [2] stands for this setting: FAM-19mer competition, 80 nM VBC/20 nM FAM-19mer reporter.

The term Ki denotes the dissociation constant of the complex between target and ligand, obtained from inhibition or displacement. In the case of `CC[C@H](C)[C@H](NC(=O)[C@H](Cc1ccc(O)cc1)NC(=O)[C@@H]1C[C@@H](O)CN1C(=O)[C@H](C)NC(=O)[C@H](CC(C)C)NC(=O)[C@H](C)NC(=O)[C@H](CCC(=O)O)NC(=O)[C@@H](N)CC(=O)O)C(=O)N1CCC[C@H]1C(=O)N[C@@H](CCSC)C(=O)N[C@@H](CC(=O)O)C(=O)O` [11mer], the inhibition constant Ki reads like this: under setting [1], 0.604 µM; under setting [2], 0.535 µM.

Take `CC[C@H](C)[C@H](NC(=O)[C@H](Cc1ccc(O)cc1)NC(=O)[C@@H]1C[C@@H](O)CN1C(=O)[C@H](C)NC(=O)[C@H](CC(C)C)NC(=O)[C@H](C)NC(=O)[C@H](CCC(=O)O)NC(=O)[C@@H](N)CC(=O)O)C(=O)N1CCC[C@H]1C(=O)N[C@@H](CCSC)C(=O)N[C@@H](CC(=O)O)C(=O)N[C@@H](CC(=O)O)C(=O)N[C@@H](CC(=O)O)C(=O)N[C@@H](Cc1ccccc1)C(=O)N[C@@H](CCC(N)=O)C(=O)N[C@@H](CC(C)C)C(=O)N[C@@H](CCCNC(=N)N)C(=O)N[C@@H](CO)C(=O)N[C@@H](Cc1ccccc1)C(=O)O` [19mer]: the Ki is, setting by setting: under setting [1], 0.167 µM; under setting [2], 0.203 µM.
